The values below are quoted from earlier work in US20110301209A1, “METHODS AND COMPOSITIONS FOR THE TREATMENT OF CANCER, TUMORS, AND TUMOR-RELATED DISORDERS” (TRAGARA PHARMACEUTICALS, INC., priority 2007, published 2011).

For the series, the system named is SKBR3 cells engineered to overexpress IGF-1R. To be noted: SKBR3 cells overexpressing IGF-1R; cited from earlier work.

For the substance “trastuzumab: an antibody directed against ErbB2”, the “Response (proliferation)” value was “no response”.
